T1: minor histocompatibility antigen HA-2, immunogenic 'V' variant (encoded by the Myosin 1G (MYO1G) gene) … (human)
T1 peptide: YIGEVLVSV


Biological target: HA-2 V peptide (…) presented by HLA-A*02:01 on antigen presenting cells (human)
Assay: cell-based or functional assay

Binder	EC50 for CD69 expression, LCL HG0017 cells [nM]
TCR C (TCR, V domains shown) Valpha: EDQVTQSPEALRLQEGESSSLNCSYTVSGLRGLFWYRQDPGKGPEFLFTLYSAGEEKEKERLKATLTKKESFLHITAPKPEDSATYLCAVQAWDYGGSQGNLIFGKGTKLSVKP Vbeta: NAGVMQNPRHLVRRRGQEARLRCSPMKGHSHVYWYRQLPEEGLKFMVYLQKENIIDESGMPKERFSAEFPKEGPSILRIQQVVRGDSAAYFCASSTREGTDTQYFGPGTRLTVL	15.7
TCR G (TCR, V domains shown) Valpha: AQTVTQSQPEMSVQEAETVTLSCTYDTSESDYYLFWYKQPPSRQMILVIRQEAYKQQNATENRFSVNFQKAAKSFSLKISDSQLGDAAMYFCAYRRFYNTDKLIFGTGTRLQVFP Vbeta: DGGITQSPKYLFRKEGQNVTLSCEQNLNHDAMYWYRQDPGQGLRLIYYSQIVNDFQKGDIAEGYSVSREKKESFPLTVTSAQKNPTAFYLCASRSAGYAEAFFGQGTRLTVV	21.6

Biological target: T1, minor histocompatibility antigen HA-2, …
Assay: multimer staining

Binder	binding result
TCR A (TCR, V domains shown) Valpha: KQEVTQIPAALSVPEGENLVLNCSFTDSAIYNLQWFRQDPGKGLTSLLLIQSSQREQTSGRLNASLDKSSGRSTLYIAASQPGDSATYLCAVRPKNYGGSQGNLIFGKGTKLSVKP Vbeta: GAGVSQSPRYKVAKRGQDVALRCDPISGHVSLFWYQQALGQGPEFLTYFQNEAQLDKSGLPSDRFFAERPEGSVSTLKIQRTQQEDSAVYLCASSFPGLASYEQYFGPGTRLTVT	recognises
TCR B (TCR, V domains shown) Valpha: KQEVTQIPAALSVPEGENLVLNCSFTDSAIYNLQWFRQDPGKGLTSLLLIQSSQREQTSGRLNASLDKSSGRSTLYIAASQPGDSATYLCAVRQGYGGSQGNLIFGKGTKLSVKP Vbeta: GAGVSQSPRYKVAKRGQDVALRCDPISGHVSLFWYQQALGQGPEFLTYFQNEAQLDKSGLPSDRFFAERPEGSVSTLKIQRTQQEDSAVYLCASSLIQGTNSPLHFGNGTRLTVT	recognises
TCR D (TCR, V domains shown) Valpha: KQEVTQIPAALSVPEGENLVLNCSFTDSAIYNLQWFRQDPGKGLTSLLLIQSSQREQTSGRLNASLDKSSGRSTLYIAASQPGDSATYLCAVRRGYGGSQGNLIFGKGTKLSVKP Vbeta: GAGVSQSPRYKVAKRGQDVALRCDPISGHVSLFWYQQALGQGPEFLTYFQNEAQLDKSGLPSDRFFAERPEGSVSTLKIQRTQQEDSAVYLCASSLTAGAYNEQFFGPGTRLTVL	recognises
TCR E (TCR, V domains shown) Valpha: GQQVMQIPQYQHVQEGEDFTTYCNSSTTLSNIQWYKQRPGGHPVFLIQLVKSGEVKKQKRLTFQFGEAKKNSSLHITATQTTDVGTYFCAADPRDNYGQNFVFGPGTRLSVLP Vbeta: DTGVSQNPRHKITKRGQNVTFRCDPISEHNRLYWYRQTLGQGPEFLTYFQNEAQLEKSRLLSDRFSAERPKGSFSTLEIQRTEQGDSAMYLCASSPLAGGETQYFGPGTRLLVL	recognises
TCR F (TCR, V domains shown) Valpha: KQEVTQIPAALSVPEGENLVLNCSFTDSAIYNLQWFRQDPGKGLTSLLLIQSSQREQTSGRLNASLDKSSGRSTLYIAASQPGDSATYLCAVRTKDYGGSQGNLIFGKGTKLSVKP Vbeta: GAGVSQSPRYKVAKRGQDVALRCDPISGHVSLFWYQQALGQGPEFLTYFQNEAQLDKSGLPSDRFFAERPEGSVSTLKIQRTQQEDSAVYLCASSLALPAADSYEQYFGPGTRLTVT	recognises
TCR H (TCR, V domains shown) Valpha: KQEVTQIPAALSVPEGENLVLNCSFTDSAIYNLQWFRQDPGKGLTSLLLIQSSQREQTSGRLNASLDKSSGRSTLYIAASQPGDSATYLCAVRSGYGGSQGNLIFGKGTKLSVKP Vbeta: GAGVSQSPRYKVAKRGQDVALRCDPISGHVSLFWYQQALGQGPEFLTYFQNEAQLDKSGLPSDRFFAERPEGSVSTLKIQRTQQEDSAVYLCASSLAGGSLQETQYFGPGTRLLVL	recognises
TCR J (TCR, V domains shown) Valpha: KQEVTQIPAALSVPEGENLVLNCSFTDSAIYNLQWFRQDPGKGLTSLLLIQSSQREQTSGRLNASLDKSSGRSTLYIAASQPGDSATYLCAVRPGNYGGSQGNLIFGKGTKLSVKP Vbeta: GAGVSQSPRYKVAKRGQDVALRCDPISGHVSLFWYQQALGQGPEFLTYFQNEAQLDKSGLPSDRFFAERPEGSVSTLKIQRTQQEDSAVYLCASSPPGGLGEKLFFGSGTQLSVL	recognises
TCR K (TCR, V domains shown) Valpha: KQEVTQIPAALSVPEGENLVLNCSFTDSAIYNLQWFRQDPGKGLTSLLLIQSSQREQTSGRLNASLDKSSGRSTLYIAASQPGDSATYLCAVRPVNYGGSQGNLIFGKGTKLSVKP Vbeta: GAGVSQSPRYKVAKRGQDVALRCDPISGHVSLFWYQQALGQGPEFLTYFQNEAQLDKSGLPSDRFFAERPEGSVSTLKIQRTQQEDSAVYLCASRSPRLETQYFGPGTRLLVL	recognises
TCR L (TCR, V domains shown) Valpha: KQEVTQIPAALSVPEGENLVLNCSFTDSAIYNLQWFRQDPGKGLTSLLLIQSSQREQTSGRLNASLDKSSGRSTLYIAASQPGDSATYLCAVRTKDYGGSQGNLIFGKGTKLSVKP Vbeta: GAGVSQSPRYKVAKRGQDVALRCDPISGHVSLFWYQQALGQGPEFLTYFQNEAQLDKSGLPSDRFFAERPEGSVSTLKIQRTQQEDSAVYLCASSFPGLVSYEQYFGPGTRLTVT	recognises
TCR M (TCR, V domains shown) Valpha: KQEVTQIPAALSVPEGENLVLNCSFTDSAIYNLQWFRQDPGKGLTSLLLIQSSQREQTSGRLNASLDKSSGRSTLYIAASQPGDSATYLCAVRSGYGGSQGNLIFGKGTKLSVKP Vbeta: GAGVSQSPRYKVAKRGQDVALRCDPISGHVSLFWYQQALGQGPEFLTYFQNEAQLDKSGLPSDRFFAERPEGSVSTLKIQRTQQEDSAVYLCASSLAGQETQYFGPGTRLLVL	recognises
TCR N (TCR, V domains shown) Valpha: KQEVTQIPAALSVPEGENLVLNCSFTDSAIYNLQWFRQDPGKGLTSLLLIQSSQREQTSGRLNASLDKSSGRSTLYIAASQPGDSATYLCAVRPGNYGGSQGNLIFGKGTKLSVKP Vbeta: GAGVSQSPRYKVAKRGQDVALRCDPISGHVSLFWYQQALGQGPEFLTYFQNEAQLDKSGLPSDRFFAERPEGSVSTLKIQRTQQEDSAVYLCASSLIQGTNSPLHFGNGTRLTVT	recognises
TCR O (TCR, V domains shown) Valpha: KQEVTQIPAALSVPEGENLVLNCSFTDSAIYNLQWFRQDPGKGLTSLLLIQSSQREQTSGRLNASLDKSSGRSTLYIAASQPGDSATYLCAVRPKNYGGSQGNLIFGKGTKLSVKP Vbeta: GAGVSQSPRYKVAKRGQDVALRCDPISGHVSLFWYQQALGQGPEFLTYFQNEAQLDKSGLPSDRFFAERPEGSVSTLKIQRTQQEDSAVYLCASSLAERPGTQYFGPGTRLTVL	recognises
TCR P (TCR, V domains shown) Valpha: KQEVTQIPAALSVPEGENLVLNCSFTDSAIYNLQWFRQDPGKGLTSLLLIQSSQREQTSGRLNASLDKSSGRSTLYIAASQPGDSATYLCAVRPKNYGGSQGNLIFGKGTKLSVKP Vbeta: GAGVSQSPRYKVAKRGQDVALRCDPISGHVSLFWYQQALGQGPEFLTYFQNEAQLDKSGLPSDRFFAERPEGSVSTLKIQRTQQEDSAVYLCASSLIQGTNSPLHFGNGTRLTVT	recognises

Biological target: T1, minor histocompatibility antigen HA-2, …
Assay: CD69 upregulation, flow cytometry; Jurkat J.RT3-T3.5-CD8 with the TCR, 1:1 with A*02:01 LCL HG0017 cells and increasing HA-2 V peptide, 16-24 h; XLfit; full-length, on cells

Binder	EC50 of peptide [nM]
TCR C (TCR, V domains shown) Valpha: EDQVTQSPEALRLQEGESSSLNCSYTVSGLRGLFWYRQDPGKGPEFLFTLYSAGEEKEKERLKATLTKKESFLHITAPKPEDSATYLCAVQAWDYGGSQGNLIFGKGTKLSVKP Vbeta: NAGVMQNPRHLVRRRGQEARLRCSPMKGHSHVYWYRQLPEEGLKFMVYLQKENIIDESGMPKERFSAEFPKEGPSILRIQQVVRGDSAAYFCASSTREGTDTQYFGPGTRLTVL	15.7
TCR G (TCR, V domains shown) Valpha: AQTVTQSQPEMSVQEAETVTLSCTYDTSESDYYLFWYKQPPSRQMILVIRQEAYKQQNATENRFSVNFQKAAKSFSLKISDSQLGDAAMYFCAYRRFYNTDKLIFGTGTRLQVFP Vbeta: DGGITQSPKYLFRKEGQNVTLSCEQNLNHDAMYWYRQDPGQGLRLIYYSQIVNDFQKGDIAEGYSVSREKKESFPLTVTSAQKNPTAFYLCASRSAGYAEAFFGQGTRLTVV	21.6

From patent publication US20260199470A1 (published 2026)
